The source of these data is patent US20240158392A1 (Janssen Biotech, Inc., priority 2021, published 2024).

Sequences of proteins named here, by UniProt entry; tags and fusion partners are left off.
UniProt Q9H0K1, whole entry, species assumed: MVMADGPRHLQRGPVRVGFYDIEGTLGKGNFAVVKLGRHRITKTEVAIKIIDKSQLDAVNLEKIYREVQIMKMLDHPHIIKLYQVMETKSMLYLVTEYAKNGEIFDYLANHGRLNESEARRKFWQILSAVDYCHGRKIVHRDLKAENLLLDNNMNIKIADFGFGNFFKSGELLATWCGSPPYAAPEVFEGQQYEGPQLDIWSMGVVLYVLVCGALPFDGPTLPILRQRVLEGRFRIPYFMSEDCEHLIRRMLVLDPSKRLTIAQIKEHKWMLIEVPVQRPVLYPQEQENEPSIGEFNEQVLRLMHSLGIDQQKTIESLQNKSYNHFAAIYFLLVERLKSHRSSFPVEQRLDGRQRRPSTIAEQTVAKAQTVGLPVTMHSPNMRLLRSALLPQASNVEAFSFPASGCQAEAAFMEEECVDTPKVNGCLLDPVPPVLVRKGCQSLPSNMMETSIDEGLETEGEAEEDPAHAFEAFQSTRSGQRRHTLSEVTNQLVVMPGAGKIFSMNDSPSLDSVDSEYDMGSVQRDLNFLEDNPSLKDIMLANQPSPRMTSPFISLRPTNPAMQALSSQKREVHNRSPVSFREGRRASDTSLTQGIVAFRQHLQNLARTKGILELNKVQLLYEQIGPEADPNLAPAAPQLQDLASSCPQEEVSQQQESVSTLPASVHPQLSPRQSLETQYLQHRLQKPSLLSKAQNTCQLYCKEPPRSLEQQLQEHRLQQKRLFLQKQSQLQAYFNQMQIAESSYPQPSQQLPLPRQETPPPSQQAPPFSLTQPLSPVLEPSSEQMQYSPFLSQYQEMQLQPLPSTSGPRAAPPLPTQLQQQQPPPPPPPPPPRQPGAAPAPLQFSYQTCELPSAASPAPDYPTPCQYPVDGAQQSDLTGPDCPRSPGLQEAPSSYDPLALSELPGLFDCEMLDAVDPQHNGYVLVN

The target of assay [1] is T1, SIK2 (Homo sapiens, UniProt Q9H0K1). Briefly: SIK2 Enzymatic Assay Version 1 (ADP Glo). In kind it is biochemical. The settings on record: enzyme 0.6 nM, 160 μM ATP and 140 μM HDAC5tide (each 2× final concentration); 30 minutes pre-incubation, 4 hours; ADPGlo luminescence; read-out: SIK2 ADP Glo IC50 (μM) (Test Example 1). The protocol:
All steps were performed at room temperature. Compounds were pre-plated onto an assay plate using an Echo acoustic dispenser (Labcyte, E550 or E555) at 20 nL per well. Enzyme prepared in Assay Buffer at 0.6 nM (2× final concentration) was added at 2 μL per well using the Multidrop Combi (Thermo Fisher—used for all additions in this assay) to the assay plate, spun for 1 min at 800-850 rpm (Allegra 6KR Beckman Coulter centrifuge), and incubated with compound for 30 minutes.
One column of wells was dedicated to a no-peptide negative control (containing only ATP). ADPGlo Reagent (prepared and aliquoted as per manufacturer instructions) was then added at 2 μL per well, spun and incubated for 40 min. ADPGlo Detection (prepared and aliquoted as per manufacturer instructions) was added at 2 μL per well to the assay plate, which was spun and incubated for at least 30 min. The plate was then read on the Pherastar (BMG Labtech) using a luminescence read. Gain was set by the 0.1 mM concentration of ADP wells in the ADP/ATP standard curve plate generated as per manufacturer instructions.

Assay [2] deals with T1, SIK2. As to the kind of experiment: SIK2 Enzymatic Assay High Version 2 (High ATP). It is filed as biochemical. The protocol:
All steps were performed at room temperature. Compounds were pre-plated onto an assay plate using an Echo acoustic dispenser (Labcyte, E550 or E555) at 80 nL per well. Enzyme prepared in assay buffer at 6 nM (2× final concentration) was added at 4 μL per well using the Multidrop Combi (Thermo Fisher—used for all additions in this assay) to the assay plate, spun for 1 min at 1000 rpm (Allegra 6KR Beckman Coulter centrifuge), and incubated with compound for 30 minutes. Assay buffer containing 6 mM ATP and 400 μM HDAC5tide (2× of final concentration for each substrate) was added at 4 μL per well to the assay plate and then spun as above and incubated for 2 hours. […] ADP-Glo Max Reagent (prepared and aliquoted as per manufacturer instructions) was then added at 8 μL per well, spun and incubated for 2 hours. ADP-Glo Max Detection (prepared and aliquoted as per manufacturer instructions) was added at 8 μL per well to the assay plate, which was spun and incubated for 1 hour. The plate is then read on the Pherastar (BMG Labtech) using a luminescence read. Gain is set between 2200-2500.

`Cc1cc(-c2ccn3nc(Nc4cc(C)nc(C)n4)cc3c2)c(OC[C@@H]2CN(C)C(=O)N2C)cn1` [Example 562, (4S)-4-[[4-[2-[(2,6-dimethylpyrimidin-4-yl)amino]pyrazolo[1,5-a]pyridin-5-yl]-6-methyl-3-pyridyl]oxymethyl]-1,3-dimethyl-imidazolidin-2-one]: the 50% inhibitory concentration (IC50) is 0.000438 µM on SIK2 [1] and 12 nM against SIK2 [2].

As to `CC#Cc1cc(-c2ccn3nc(Nc4cc(C)nc(C)n4)cc3c2)c(O[C@@H]2[C@@H]3CO[C@H]2CN3)cn1` [Example 440, N-(2,6-dimethylpyrimidin-4-yl)-5-[5-[[(1S,4S,7R)-2-oxa-5-azabicyclo[2.2.1]heptan-7-yl]oxy]-2-prop-1-ynyl-4-pyridyl]pyrazolo[1,5-a]pyridin-2-amine], the IC50 on SIK2 [1] came out at 0.000435 µM; against SIK2 [2], 6.71 nM.
